This is an account of results in ChEMBL document CHEMBL6114983 (Bioorg Med Chem, 2025).

Amino acid sequences for entries named in this document (tags omitted). Residues count along the entry.
UniProt Q16769, 29-361 limits assumed: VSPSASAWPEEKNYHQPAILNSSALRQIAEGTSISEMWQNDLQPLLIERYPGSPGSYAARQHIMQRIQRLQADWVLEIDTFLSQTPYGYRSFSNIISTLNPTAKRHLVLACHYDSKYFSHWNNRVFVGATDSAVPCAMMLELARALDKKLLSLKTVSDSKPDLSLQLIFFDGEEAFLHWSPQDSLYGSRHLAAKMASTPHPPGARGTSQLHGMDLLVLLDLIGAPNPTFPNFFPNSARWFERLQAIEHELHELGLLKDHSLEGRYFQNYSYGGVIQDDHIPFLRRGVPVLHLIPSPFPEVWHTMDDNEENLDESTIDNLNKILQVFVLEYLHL

pIC50: −log10 of the molar value. This is a selection: effects in other tests are not listed, and their absence says nothing.

In this experiment the target is Glutaminyl-peptide cyclotransferase (Homo sapiens, UniProt Q16769).

The pIC50 is the negative decadic logarithm of the IC50, by convention in mol/L. Read a high pIC50 as a small IC50. As to `COc1ccc(N(C(=O)NCCCn2cncc2C)C2CCN(C(=O)OC(C)(C)C)CC2)cc1OC`, the pIC50 was 7.82.
